This is a selection; strong and weak results do not stand in their true shares. Active and inactive are the calls of the source. Calls follow the shape of the dose curve; as a rule, active = well fitted activation curve with a large enough effect; inconclusive = small, poorly fitted or top-dose-only effect; inactive = flat fitted curve, though single readings scatter; cell line not stated here.

A short description of the test: A Quantitative High throughput Screen to Identify Chemical Modulators of PINK1 Expression. Also: % of control where 0% means no effect; nearly all actives have a fitted effect of over 65% in size. Conditions: PINK1 immunofluorescence, high-content cytometry, 24 h; at 76.6 µM (top of the series).
Consider `CCC(=O)N(c1ccccc1)C1(COC)CCN(CCn2nnn(CC)c2=O)CC1`, for which the activation (PINK1 increase) is inactive: -1.07%. The value for `CCC(=O)N(c1ccccc1)C1(COC)CCN(CCc2cccs2)CC1` was inactive: 0.695%.

(Values after PubChem BioAssay AID624263 (National Center for Advancing Translational Sciences (NCATS), 2012).)
